# Only a part is listed here, and it is no random draw. Activity calls are given as the source filed them. Calls follow the shape of the dose curve; as a rule, active = well fitted activation curve with a large enough effect; inconclusive = small, poorly fitted or top-dose-only effect; inactive = no such curve, though single readings can be large or run the other way.
# Assay: qHTS Assay for NPC1 Promoter Activators;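 also: reporter is driven by a mutant NPC1 promoter; % of control where 0% means no effect; nearly all actives have a fitted effect of over 60% in size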
# Conditions: Huh7 NPC1 promoter luciferase reporter, 24 h
# [1] = at 9.22 µM (top of the series) unless noted
structure (smiles),measurement,setting,value
O=[N+]([O-])c1cc([N+](=O)[O-])c(-c2ccn[nH]2)s1,activation,[1],inactive: -3.29%
CCN(CC)C(=S)SC(NC=O)C(Cl)(Cl)Cl (centres undefined),activation,[1],inactive: -0.132%
CC(C)NC(=O)NP(=O)(Oc1ccccc1)Oc1ccccc1,activation,[1],inactive: -0.246%
CC(C)c1ccc(OP(=O)(Nc2ccccn2)Oc2ccccc2F)cc1 (centres undefined),activation,[1],inactive: -1.08%
ClCCSc1nnc(-c2cccnc2)o1,activation,[1],inactive: 8.6%
Cc1ccc2nc3c(c(C)c2c1)CC(C(Cl)Cl)S3 (centres undefined),activation,[1],inactive: 13%
Cc1ccc(OP(=O)(Nc2ccc([N+](=O)[O-])cn2)Oc2ccc(C)cc2)cc1,activation,[1],inactive: -6.66%
COc1cc(C(=O)NCC2(N3CCOCC3)CCCCC2)ccc1OCC(C)C,activation,[1],inactive: -1.63%
C[As](=O)(O)c1cccc(C(=O)O)c1,activation,[1],inactive: -2.41%
O=[As](O)(c1ccc(O)cc1)c1ccccc1O,activation,[1],inactive: -1.91%
COc1ccc(N/C(=N/P(=O)(N2CCOCC2)N2CCOCC2)N2CCOCC2)cc1,activation,[1],inactive: -0.437%
COc1cc(I)ccc1[As](=O)(O)O,activation,[1],inactive: -2.02%
COc1ccc2nc(NP(=O)(c3ccccc3)c3ccccc3)sc2c1,activation,[1],inactive: -3.12%
Cc1cc(=O)[nH]c(N[N+](=O)[O-])n1,activation,[1],inactive: -1.34%
O=C(OC1CN2CCC1CC2)C12CC3CC(CC(C3)C1)C2 (centres undefined),activation,[1],inactive: -0.0971%
Cc1c2c(nc3ccccc13)SC(C(Cl)Cl)C2 (centres undefined),activation,[1],inactive: -4.78%
CCC(C)N(CC(C)C)C(=S)SC(NC(C)=O)C(Cl)(Cl)Cl (centres undefined),activation,[1],inactive: -0.275%
O=C(OC1CN2CCC1CC2)c1cccc([N+](=O)[O-])c1 (centres undefined),activation,[1],inactive: -4.68%
O=C(Nc1ccncc1[N+](=O)[O-])c1ccc([N+](=O)[O-])cc1[N+](=O)[O-],activation,[1],inactive: 16.8%
O=C(COc1ccccc1)OC1CN2CCC1CC2 (centres undefined),activation,[1],inactive: -0.556%
COP1(=S)c2c(C)nn(CCC#N)c2N=C(c2ccc(F)cc2)N1C (centres undefined),activation,[1],inactive: -1.44%
O=[N+]([O-])c1ccc(Nc2ccc(Oc3ccc([N+](=O)[O-])cc3[N+](=O)[O-])cc2)c([N+](=O)[O-])c1,activation,[1],inactive: -5.12%
O=P(Nc1ccccn1)(c1cccc2ccccc12)c1cccc2ccccc12,activation,[1],inactive: -7.6%
Cc1cc(SC(NC=O)C(Cl)(Cl)Cl)ncn1 (centres undefined),activation,[1],inactive: 0.892%
CCOC(=O)Nc1cccc([As](=O)(O)O)c1,activation,[1],inactive: -4.04%
Cc1cc(SC(NC(=O)c2ccccc2)C(Cl)(Cl)Cl)nc(C(C)C)n1 (centres undefined),activation,[1],inactive: -2.42%
CCCCOc1ccc(C(=O)NCC2(N3CCCCC3)CCCCC2)cc1OC,activation,[1],inactive: 0.371%
CCOC(=O)Nc1ccc([As](=O)(O)O)c(O)c1,activation,[1],inactive: -2.18%
O=P1(Nc2ccc(Br)cn2)COc2ccccc2OC1,activation,[1],inactive: 1.62%
NS(=O)(=O)c1cccc(NC(=O)COC(=O)C(O)(c2ccccc2)c2ccccc2)c1,activation,[1],inactive: -2.78%
Cc1ccc(OCC(=O)OC2CN3CCC2CC3)cc1 (centres undefined),activation,[1],inactive: -2.76%
O=[As](O)(c1cccs1)c1cccs1,activation,[1],inactive: 0.637%
Nc1cccc([As](=O)(O)c2ccccc2)c1,activation,[1],inactive: -2.02%
O=P1(Nc2ncccn2)COc2ccccc2OC1,activation,[1],inactive: 16.3%
O=C(/C=C/c1ccccc1)OC1CN2CCC1CC2 (centres undefined),activation,[1],inactive: -0.678%
CN(C)C1(CNC(=O)c2ccc(S(C)(=O)=O)cc2)CCCCC1,activation,[1],inactive: -1.89%
CC1CCC(C(C)C)C(OP(=O)(Nc2ccccn2)c2ccccc2)C1 (centres undefined),activation,[1],inactive: -12.6%
Cc1ccc(C(=O)OC2CN3CCC2CC3)cc1 (centres undefined),activation,[1],inactive: 2.22%
Cc1nn(-c2ccccc2)c2c1P(=O)(N1CCOCC1)N(C)C(c1ccccc1)=N2 (centres undefined),activation,[1],inactive: 1.04%
O=[As](O)(c1ccccc1Br)c1ccccc1Br,activation,[1],inactive: -4.19%
CC(C)/C=N\N=C(\N)N[N+](=O)[O-],activation,[1],inactive: -15%
CN(C(=O)Cc1ccc(Cl)c(Cl)c1)[C@@H]1CCCC[C@H]1N1CCCC1,activation,[1],inactive: -1.34%
COc1ccccc1CNC(=O)COC(=O)C(O)(c1ccccc1)c1ccccc1,activation,[1],inactive: 1.28%
CC(C)(C)C(=O)NC(Sc1ncccn1)C(Cl)(Cl)Cl (centres undefined),activation,[1],inactive: -2.75%
Clc1n[nH]nc1-c1nn[nH][15n]1,activation,[1],inactive: -2.84%
CN(CCCl)Cc1cc(Cl)c(NC2=NCCN2)c(Cl)c1,activation,[1],inactive: 2.66% [at 46.1 µM]
CCOP(=O)(Nc1ccc(C)cn1)OCC,activation,[1],inactive: 2.24%
CCOP(=O)(NC(=NC(C)c1ccccc1)NC(C)c1ccccc1)OCC (centres undefined),activation,[1],inactive: 1.53%
O=P1(Nc2ccccn2)COc2ccccc2OC1,activation,[1],inactive: -2.62%
CCC1=CC2Cc3nc4ccc(Cl)cc4c(N)c3C(C1)C2 (centres undefined),activation,[1],inactive: -1.66%
CCOP(=O)(Nc1cccc2ccccc12)OCC,activation,[1],inactive: -1.45%
COc1cc(C2NCCC3(OCCO3)C2(C)C)cc(OC)c1OC (centres undefined),activation,[1],inactive: -0.202%
CCCOP(=S)(Nc1nc(N)cc(=O)[nH]1)OCCC,activation,[1],inactive: 0.758%
Cc1ccc(NCCc2c([N+](=O)[O-])cc([N+](=O)[O-])cc2[N+](=O)[O-])cc1,activation,[1],inactive: -1.48%
Nc1cccc2c([As](=O)(O)O)cccc12,activation,[1],inactive: -0.881%
O=[As](O)(c1cccc(O)c1)c1cccc(O)c1,activation,[1],inactive: 3.27%
CS(=O)(=O)c1ccc(Cl)c(NC(=O)COC(=O)C(O)(c2ccccc2)c2ccccc2)c1,activation,[1],inactive: 1.4%
COc1cc(C(=O)NCC2(N3CCOCC3)CCCCC2)cc(Cl)c1OC(C)C,activation,[1],inactive: -3.94%
O=[As](O)(O)c1cccnc1,activation,[1],inactive: -0.436%
CN(C(=O)Cc1ccc(Cl)c(Cl)c1)[C@@H]1CC[C@]2(CCCO2)C[C@H]1N1CCCC1,activation,[1],inactive: -4.93% [at 46.1 µM]
O=C(OC1CN2CCC1CC2)c1ccc(Cl)cc1 (centres undefined),activation,[1],inactive: -4.76%
O=[N+]([O-])c1ccc2c(c1)nnn2O,activation,[1],inactive: -0.51%
CN(C(=O)Cc1ccccc1)[C@@H]1CC[C@]2(CCCO2)C[C@H]1N1CCCC1,activation,at 9.22 µM (top of the series),inactive: -3.35%
same,activation,at 46.1 µM (top of the series),inactive: -1.52%
CCOP1(=S)c2c(C)nn(CCC#N)c2N=C(c2ccc(F)cc2)N1C (centres undefined),activation,[1],inactive: 0.357%
N#CCCN(C(=O)COC(=O)C(O)(c1ccccc1)c1ccccc1)c1ccc(F)cc1,activation,[1],inactive: -0.614%
NC(=O)Nc1ccc([As](=O)(O)O)cc1,activation,[1],inactive: -0.0193%
Nc1ccccc1[As](=O)(O)c1ccccc1,activation,[1],inactive: -4.26%
O=C(O)COc1ccc([As](=O)(O)O)cc1[N+](=O)[O-],activation,[1],inactive: -0.0709%
CS(=O)(=O)c1cc([N+](=O)[O-])c2no[n+]([O-])c2c1,activation,[1],inactive: -3.86%
O=P(Nc1nccs1)(c1ccccc1)c1nc2ccccc2s1 (centres undefined),activation,[1],inactive: 10.1%
O=P(Nc1nccs1)(Oc1ccccc1)Oc1ccccc1,activation,[1],inactive: 1.05%
CCOP1(=S)c2c(C)nn(CCC#N)c2N=C(c2ccccc2F)N1C (centres undefined),activation,[1],inactive: -8.18%
CN(C)C(=O)Oc1noc2ccccc12,activation,[1],inactive: -5.3%
O=c1c2cc([N+](=O)[O-])ccc2[nH]c2c([N+](=O)[O-])cc([N+](=O)[O-])cc12,activation,[1],inactive: -42.2%
Cc1ccccc1OP(=O)(Nc1ccccn1)Oc1ccccc1C,activation,[1],inactive: -1.16%
CC(=O)NC(SC(=S)N(CC(C)C)CC(C)C)C(Cl)(Cl)Cl (centres undefined),activation,[1],inactive: -5.88%
Cc1ccc(OP(=O)(Nc2ccccn2)Oc2ccc(C)cc2)cc1,activation,[1],inactive: -3.04%
COC(=O)c1cc2c(s1)N=C(c1ccccc1)N(C)P2(=O)N1CCOCC1 (centres undefined),activation,[1],inactive: 7.64%
CCC(=O)N1C2C3N(C(=O)CC)C1C1N(C(=O)CC)C(C(N1C(=O)CC)N3C(=O)CC)N2C(=O)CC,activation,[1],inactive: -2.66%
CN(C(=O)Cc1ccc(Cl)c(Cl)c1)[C@@H]1CCCC[C@@H]1N1CCCC1,activation,[1],inactive: -7.72% [at 46.1 µM]
O=C(OC1CN2CCC1CC2)c1ccccc1 (centres undefined),activation,[1],inactive: 0.319%
CCNC(=S)/N=C(\N)N[N+](=O)[O-],activation,[1],inactive: -8.67%
O=C(NC1CCS(=O)(=O)C1)NP(=S)(Oc1ccccc1)Oc1ccccc1 (centres undefined),activation,[1],inactive: -0.361%
Cc1ccc(NP(=O)(Oc2cccc(C)c2)Oc2cccc(C)c2)nc1,activation,[1],inactive: -3.22%
CCOC(=O)NC(Sc1ccccc1)C(Cl)(Cl)Cl (centres undefined),activation,[1],inactive: -8.13%
c1ccc(-c2nn[nH]n2)c(-c2nn[nH]n2)c1,activation,[1],inactive: -1.06%
CC(=O)Nc1ccc(Oc2c([N+](=O)[O-])cc([N+](=O)[O-])cc2[N+](=O)[O-])cc1,activation,[1],inactive: -0.394%
CC(=O)Nc1ccc([As](=O)(O)O)c(O)c1,activation,[1],inactive: -4.59%
CC(=O)c1ccc(N2CC2c2ccncc2)cc1 (centres undefined),activation,[1],inactive: -3.18%
C[C@@H]1C=CCP(=O)(Oc2ccccc2)O1 (some centres undefined),activation,[1],inactive: 1.27%
C[C@H]1OP(=O)(Oc2ccccc2)C[C@@H]2O[C@@H]21 (some centres undefined),activation,[1],inactive: -4.56%
Cc1ccccc1CN(C)C(=O)COC(=O)C(O)(c1ccccc1)c1ccccc1,activation,[1],inactive: 4.46%
CC(C)(C)C(=O)NC(Sc1ccccc1)C(Cl)(Cl)Cl (centres undefined),activation,[1],inactive: -2.04%
CCOc1ccc(C2=NCC(CBr)S2)cc1 (centres undefined),activation,[1],inactive: 4.14%
O=P1(Nc2nc3ccc(Cl)cc3s2)COc2ccccc2O1 (centres undefined),activation,[1],inactive: 3.93%
c1nnnn1CCn1cnnn1,activation,[1],inactive: 2.85%
CC(C)C(=O)NC(Sc1ccccc1)C(Cl)(Cl)Cl (centres undefined),activation,[1],inactive: 1.57%
O=P(Nc1nccs1)(c1ccccc1)c1ccccc1,activation,[1],inactive: 0.497%

# — PubChem BioAssay AID485313 (National Center for Advancing Translational Sciences (NCATS), 2010)
